The target in this assay is human CYP11B2 (Homo sapiens, UniProt P19099). Put plainly: Inhibitory effect on hCYP11B2: aldosterone production in mitochondrial fraction of V79 cells stably expressing human CYP11B2, HTRF. Conditions: read-out: hCyp11B2 IC50; 0.5 μmol/L deoxycorticosterone, 150 μmol/L NADPH, 1.5-2 hours at room temperature. The class given is biochemical. Here is the method:
Experimental Example 1 (Inhibitory Effect on hCYP11B2)
The pcDNA3.1-human CYP11B2 plasmid was transfected into a Chinese hamster lung fibroblast V79 cell line to produce a cell line stably expressing human CYP11B2 gene.
The cells were cultured and grown in the Dulbecco's modified Eagle's/Ham's medium supplemented with 10% fetal bovine serum and 1% G418 disulfate solution under the environment of 37° C., 95% air, and 5% CO2, and the grown cells were harvested.
Then, the cells were fractionated to obtain mitochondria by reference to a method described in Chabre et al. JCE & M 85 (11) 4060-68, 2000. In particular, the cells suspended in a 5 mmol/L Tris-HCl buffer (pH 7.4) containing 250 mmol/L sucrose were homogenized in a Teflon (Registered Trademark) Potter Elvehjem homogenizer, and then the suspension was centrifuged (800×g, 15 min.). […]
The mitochondrial fraction diluted with a buffer containing 10 mmol/L KH2PO4, 10 mmol/L Tris, 20 mmol/L KCl, 25 mmol/L sucrose, 5 mmol/L MgCl2, and 0.05% bovine serum albumin was dispensed to a 96-well plate. […] An amount of the produced aldosterone in the incubated solution was determined by using HTRF (Homogeneous Time Resolved Fluorescence) method.
IC50 (nmol/L) was calculated by analyzing the aldosterone production inhibition rate (%) of each concentration of compounds by non-linear regression to a logistic curve.
On the technique in general: In TR-FRET formats the signal depends on donor and acceptor labels being close together.

Chains of the proteins cited; added tags and fusions are not shown. Residues count along the entry.
UniProt P19099, 25-503 limits assumed: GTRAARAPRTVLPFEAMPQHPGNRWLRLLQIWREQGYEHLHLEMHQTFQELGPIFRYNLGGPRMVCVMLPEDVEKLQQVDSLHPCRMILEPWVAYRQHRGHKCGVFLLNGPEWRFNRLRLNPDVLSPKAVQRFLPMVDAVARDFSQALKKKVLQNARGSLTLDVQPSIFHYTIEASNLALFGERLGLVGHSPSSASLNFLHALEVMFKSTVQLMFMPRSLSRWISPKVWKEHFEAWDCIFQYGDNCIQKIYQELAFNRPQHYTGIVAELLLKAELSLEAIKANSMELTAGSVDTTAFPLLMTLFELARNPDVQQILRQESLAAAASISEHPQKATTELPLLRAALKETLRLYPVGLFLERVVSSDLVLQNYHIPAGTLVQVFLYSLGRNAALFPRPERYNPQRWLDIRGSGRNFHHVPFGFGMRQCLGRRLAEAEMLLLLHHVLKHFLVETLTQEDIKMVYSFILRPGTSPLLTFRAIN

As usually defined, the IC50 is the point on the concentration scale where inhibition reaches its midpoint. For the molecule `O=C(CN1CCN(c2cc(-c3ccc(F)cc3)cnn2)CC1)N[C@@H]1CCNC[C@H]1F` (relative stereo), the IC50 was found to be 10 nM.

Values taken from patent publication US10717731B2, “Nitrogen-containing aromatic heterocyclic compound” (MITSUBISHI TANABE PHARMA CORPORATION, priority 2015, dated 2020).
